# Target: native human LAG-3 (Homo sapiens, endogenous) (UniProt P18627)
# Experiment: flow cytometry on cells
substance,measurement,value
relatlimab (antibody),EC50,0.11 nM

# From PMC9530649 (Cancer Immunology Research, 2022)
